Consider 20 compounds from US8828401B2, “Cytotoxic peptides and antibody drug conjugates thereof” (Pfizer Inc., priority 2011, dated 2014).

Data set [1] has as its system MDA-MB-361-DYT2 (breast cancer). In words: In vitro cell assay, MTS cell viability 96 hours after treatment. It is filed as cell-based. Particulars: read-out: MDA-MB-361-DYT2 GMEAN IC50, MDA-MB-361-DYT2 cells; geometric mean; cytotoxic peptides. The procedure: (§1) Cells were treated with 3-fold serially diluted antibody-drug conjugates or free compounds (i.e., no antibody conjugated to the drug) in duplicate at 10 concentrations. Cell viability was determined by CellTiter 96® AQueous One Solution Cell Proliferation MTS Assay (Promega, Madison Wis.) 96 hours after treatment. Relative cell viability was determined as percentage of untreated control.

Another data set has as its system BT474 (breast cancer). The data set is described as above. It is filed as cell-based. Particulars: Homo sapiens, BT-474, BT474 cells; geometric mean; cytotoxic peptides; read-out: BT474 GMEAN IC50. As for the experimental part: as §1
A short description of data set [2]: Rat toxicokinetics, single dose, total antibody and ADC by ELISA. Particulars: rats, 0-last of 0-336 h.
Data set [3] in a line: Mouse pharmacokinetics, single dose, total antibody and ADC by ELISA. Particulars: mice; single 3 mg/kg dose; 0-last of 0-336 h.

`CC[C@H](C)[C@@H]([C@@H](CC(=O)N1CCC[C@H]1[C@H](OC)[C@@H](C)C(=O)N[C@@H](Cc1ccccc1)c1nccs1)OC)N(C)C(=O)[C@@H](NC(=O)[C@@]1(C)CCCN1)C(C)C` [#232]: the IC50 in data set [1] was found to be 0.095 nM. Turning to `CC[C@H](C)[C@@H]([C@@H](CC(=O)N1CCC[C@H]1[C@H](OC)[C@@H](C)C(=O)N[C@@H](Cc1ccccc1)C(=O)OC)OC)N(C)C(=O)[C@@H](NC(=O)[C@@]1(C)CCCCN1)C(C)C` (single isomer, unassigned) [#159], in data set [1], the IC50 is 0.074 nM.

With `CC[C@H](C)[C@@H]([C@@H](CC(=O)N1CCC[C@H]1[C@H](OC)[C@@H](C)C(=O)N[C@@H](Cc1ccccc1)C(=O)OC)OC)N(C)C(=O)[C@@H](NC(=O)[C@@]1(C)CCCN1)C(C)C` [#131, 2-methyl-D-prolyl-N-[(3R,4S,5S)-3-methoxy-1-{(2S)-2-[(1R,2R)-1-methoxy-3-{[(2S)-1-methoxy-1-oxo-3-phenylpropan-2-yl]amino}-2-methyl-3-oxopropyl]pyrrolidin-1-yl}-5-methyl-1-oxoheptan-4-yl]-N-methyl-L-valinamide], the IC50 in data set [1] came to 0.081 nM. Turning to `CC[C@H](C)[C@@H]([C@@H](CC(=O)N1CCC[C@H]1[C@H](OC)[C@@H](C)C(=O)N[C@@H](Cc1ccccc1)C(=O)OC)OC)N(C)C(=O)[C@@H](NC(=O)[C@](C)(N)CC)C(C)C` [#149, D-isovalyl-N-{(1S,2R)-4-{(2S)-2-[(1R,2R)-3-{[(1S)-1-benzyl-2-methoxy-2-oxoethyl]amino}-1-methoxy-2-methyl-3-oxopropyl]pyrrolidin-1-yl}-2-methoxy-1-[(1S)-1-methylpropyl]-4-oxobutyl}-N-methyl-L-valinamide], the IC50 in the data set on BT474 (breast cancer) came out at 0.417 nM. Consider “H(C)-mc-MMAD: trastuzumab cysteine conjugate comprising MMAD with mc linker”, for which the “AUC (0-last) ADC” value in data set [2] (Dose 10) is 7650 µg·h/mL; in data set [2] (Dose 30) it was 20700 µg·h/mL; in data set [2] (Dose 100), 58000 µg·h/mL; in data set [3], 3580 µg·h/mL. For the same compound, the results for the “AUC (0-last) Ab” value in data set [2] (Dose 10), in data set [2] (Dose 30) and in data set [3] were 14500 µg·h/mL, 43800 µg·h/mL and 4970 µg·h/mL, respectively. For the compound `CC[C@H](C)[C@@H]([C@@H](CC(=O)N1CCC[C@H]1[C@H](OC)[C@@H](C)C(=O)N[C@H](C)[C@@H](O)c1ccccc1)OC)N(C)C(=O)[C@@H](NC(=O)C(C)(C)NC)C(C)C` [#145, N,2-dimethylalanyl-N-{(1S,2R)-4-{(2S)-2-[(1R,2R)-3-{[(1R,2S)-2-hydroxy-1-methyl-2-phenylethyl]amino}-1-methoxy-2-methyl-3-oxopropyl]pyrrolidin-1-yl}-2-methoxy-1-[(1S)-1-methylpropyl]-4-oxobutyl}-N-methyl-L-valinamide], the IC50 in the data set on BT474 (breast cancer) was determined as 0.185 nM. Take `CC[C@H](C)[C@@H]([C@@H](CC(=O)N1CCC[C@H]1[C@H](OC)[C@@H](C)C(=O)N[C@@H](Cc1ccccc1)c1nccs1)OC)N(C)C(=O)[C@@H](NC(=O)C(C)(C)N)C(C)C` [#54, 2-methylalanyl-N-[(3R,4S,5S)-3-methoxy-1-{(2S)-2-[(1R,2R)-1-methoxy-2-methyl-3-oxo-3-{[(1S)-2-phenyl-1-(1,3-thiazol-2-yl)ethyl]amino}propyl]pyrrolidin-1-yl}-5-methyl-1-oxoheptan-4-yl]-N-methyl-L-valinamide]: in data set [1], the IC50 was found to be 0.206 nM.

On to `CC[C@H](C)[C@@H]([C@@H](CC(=O)N1CCC[C@H]1[C@H](OC)[C@@H](C)C(=O)N[C@@H](Cc1ccccc1)C(=O)O)OC)N(C)C(=O)[C@@H](NC(=O)[C@@]1(C)CCCN1C)C(C)C` [#153, 1,2-dimethyl-D-prolyl-N-{(1S,2R)-4-{(2S)-2-[(1R,2R)-3-{[(1S)-1-carboxy-2-phenylethyl]amino}-1-methoxy-2-methyl-3-oxopropyl]pyrrolidin-1-yl}-2-methoxy-1-[(1S)-1-methylpropyl]-4-oxobutyl}-N-methyl-L-valinamide], for which, in the data set on BT474 (breast cancer), the IC50 is 98.2 nM. Same read-out and setting: the figure for `CC[C@H](C)[C@@H]([C@@H](CC(=O)N1CCC[C@H]1[C@H](OC)[C@@H](C)C(=S)NCCc1ccccc1)OC)N(C)C(=O)[C@@H](NC(=O)[C@@H](NC)C(C)C)C(C)C` [#36, N-methyl-L-valyl-N-{(3R,4S,5S)-3-methoxy-1-[(2S)-2-{(1R,2R)-1-methoxy-2-methyl-3-[(2-phenylethyl)amino]-3-thioxopropyl}pyrrolidin-1-yl]-5-methyl-1-oxoheptan-4-yl}-N-methyl-L-valinamide] is 0.499 nM.

In the case of `CC[C@H](C)[C@@H]([C@@H](CC(=O)N1CCC[C@H]1[C@H](OC)[C@@H](C)C(=O)N[C@@H](Cc1ccc(N)cc1)C(=O)OC)OC)N(C)C(=O)[C@@H](NC(=O)[C@]1(C)CCCN1C)C(C)C` [#208, 1,2-dimethyl-L-prolyl-N-[(3R,4S,5S)-1-{(2S)-2-[(1R,2R)-3-{[(2S)-3-(4-aminophenyl)-1-methoxy-1-oxopropan-2-yl]amino}-1-methoxy-2-methyl-3-oxopropyl]pyrrolidin-1-yl}-3-methoxy-5-methyl-1-oxoheptan-4-yl]-N-methyl-L-valinamide], the IC50 in the data set with BT474 (breast cancer) was determined as 0.418 nM. Consider `CC[C@H](C)[C@@H]([C@@H](CC(=O)N1CCC[C@H]1[C@H](OC)[C@@H](C)C(=O)N[C@@H](Cc1ccccc1)C(=O)O)OC)N(C)C(=O)[C@@H](NC(=O)C(C)(C)N)C(C)C` [#69, 2-methylalanyl-N-[(3R,4S,5S)-1-{(2S)-2-[(1R,2R)-3-{[(1S)-1-carboxy-2-phenylethyl]amino}-1-methoxy-2-methyl-3-oxopropyl]pyrrolidin-1-yl}-3-methoxy-5-methyl-1-oxoheptan-4-yl]-N-methyl-L-valinamide], for which the IC50 in data set [1] worked out at 41 nM. As to `CC[C@H](C)[C@@H]([C@@H](CC(=O)N1CCC[C@H]1[C@H](OC)[C@@H](C)C(=O)N[C@@H](Cc1ccccc1)C(=O)OC)OC)N(C)C(=O)[C@@H](NC(=O)C(C)(C)CN)C(C)C` [#126, methyl N-[(2R,3R)-3-{(2S)-1-[(3R,4S,5S)-4-{[N-(3-amino-2,2-dimethylpropanoyl)-L-valyl](methyl)amino}-3-methoxy-5-methylheptanoyl]pyrrolidin-2-yl}-3-methoxy-2-methylpropanoyl]-L-phenylalaninate], in the data set on BT474 (breast cancer), the IC50 turned out to be 0.315 nM. As for `CC[C@H](C)[C@@H]([C@@H](CC(=O)N1CCC[C@H]1[C@H](OC)[C@@H](C)C(=O)N[C@@H](Cc1ccc2c(c1)CCCN2)C(=O)OC)OC)N(C)C(=O)[C@@H](NC(=O)[C@]1(C)CCCN1C)C(C)C` [#207, 1,2-dimethyl-L-prolyl-N-[(3R,4S,5S)-3-methoxy-1-{(2S)-2-[(1R,2R)-1-methoxy-3-{[(2S)-1-methoxy-1-oxo-3-(1,2,3,4-tetrahydroquinolin-6-yl)propan-2-yl]amino}-2-methyl-3-oxopropyl]pyrrolidin-1-yl}-5-methyl-1-oxoheptan-4-yl]-N-methyl-L-valinamide], the IC50 in data set [1] was determined as 0.26 nM. On the same count and under the same terms, the figure for `CC[C@H](C)[C@@H]([C@@H](CC(=O)N1CCC[C@H]1[C@H](OC)[C@@H](C)C(=O)N[C@@H](Cc1ccccc1)c1nccs1)OC)N(C)C(=O)[C@@H](NC(=O)[C@@]1(C)CCCCN1)C(C)C` [#190, (2R)—N-[(2S)-1-{[(3R,4S,5S)-3-methoxy-1-{(2S)-2-[(1R,2R)-1-methoxy-2-methyl-3-oxo-3-{[(1S)-2-phenyl-1-(1,3-thiazol-2-yl)ethyl]amino}propyl]pyrrolidin-1-yl}-5-methyl-1-oxoheptan-4-yl](methyl)amino}-3-methyl-1-oxobutan-2-yl]-2-methylpiperidine-2-carboxamide] is 0.095 nM. Same read-out and setting: the figure for `CC[C@H](C)[C@@H]([C@@H](CC(=O)N1CCC[C@H]1[C@H](OC)[C@@H](C)C(=O)N[C@@H](Cc1ccccc1)C(=O)OC)OC)N(C)C(=O)[C@@H](NC(=O)C(C)(C)N(C)C)C(C)C` [#228] is 0.078 nM. On the same count and under the same terms, the same measure for `CC[C@H](C)[C@@H]([C@@H](CC(=O)N1CCC[C@H]1[C@H](OC)[C@@H](C)C(=O)N[C@@H](Cc1ccccc1)C(=O)OC)OC)N(C)C(=O)[C@@H](NC(=O)[C@@](C)(N)CC)C(C)C` [#148, L-isovalyl-N-{(1S,2R)-4-{(2S)-2-[(1R,2R)-3-{[(1S)-1-benzyl-2-methoxy-2-oxoethyl]amino}-1-methoxy-2-methyl-3-oxopropyl]pyrrolidin-1-yl}-2-methoxy-1-[(1S)-1-methylpropyl]-4-oxobutyl}-N-methyl-L-valinamide]: 0.502 nM; for `CC[C@H](C)[C@@H]([C@@H](CC(=O)N1CCC[C@H]1[C@H](OC)[C@@H](C)C(=O)N[C@H](C(=O)OC)[C@H]1Cc2ccccc21)OC)N(C)C(=O)[C@@H](NC(=O)C(C)(C)N)C(C)C` [#225]: 7.58 nM. Turning to `CC[C@H](C)[C@@H]([C@@H](CC(=O)N1CCC[C@H]1[C@H](OC)[C@@H](C)C(=O)N[C@@H](Cc1ccccc1)C(=O)NCc1c[nH]nn1)OC)N(C)C(=O)[C@@H](NC(=O)C(C)(C)NC)C(C)C` [#240], the IC50 in the data set with BT474 (breast cancer) was 11.7 nM.

Regarding `CC[C@H](C)[C@@H]([C@@H](CC(=O)N1CCC[C@H]1[C@H](OC)[C@@H](C)C(=O)N[C@H](C(=O)OC)[C@@H]1Cc2ccccc21)OC)N(C)C(=O)[C@@H](NC(=O)C(C)(C)N)C(C)C` [#227], the IC50 in the data set with BT474 (breast cancer) was determined as 11 nM. “H(C)-MalPEG6C2-MMAD: trastuzumab cysteine conjugate comprising MMAD with MalPEG6C2 linker”: in data set [3], the “AUC (0-last) ADC” value came out at 2641 µg·h/mL and the “AUC (0-last) Ab” value was determined as 5415 µg·h/mL.

As a reminder, the IC50 is the concentration at which inhibition is half-maximal.
